{
  "source": "patent US20210179655A1",
  "about": "“Prodrugs of a JAK Inhibitor Compound for Treatment of Gastrointestinal Inflammatory Disease” (THERAVANCE BIOPHARMA R&D IP, LLC, priority 2015, published 2021)",
  "test_system": "splenic NK cells",
  "assay": "Immunosuppression effects in mouse splenic natural killer (NK) cells",
  "format": "in vivo",
  "details": "10, 30 and 60 mg/kg; PO, TID; three days, naïve mice",
  "data": [
    {"smiles": "C[C@@H]1CCN(C(=O)CC#N)C[C@@H]1N(C)c1ncnc2[nH]ccc12", "note": "[Tofacitinib, 3-((3R,4R)-4-methyl-3-(methyl(7H-pyrrolo[2,3-d]pyrimidin-4-yl)amino)piperidin-1-yl)-3-oxopropanenitrile, reference compound]", "values": [
      {"measurement": "splenic NK cell counts", "result": "dose-dependently and significantly decreased"}
    ]}
  ]
}
